Data from PubChem BioAssay AID1259310 (The Scripps Research Institute Molecular Screening Center, 2017).
The entries are a selection whose mix differs from that of the whole data set. Calls of active or inactive are those of the source. No stated cut-off is given here; in the data, active means normalized activity above about 1.9%; inactive means the rest.

The chains behind the UniProt entries cited, without tags or fusion partners.
UniProt Q969H0, whole entry, looked up: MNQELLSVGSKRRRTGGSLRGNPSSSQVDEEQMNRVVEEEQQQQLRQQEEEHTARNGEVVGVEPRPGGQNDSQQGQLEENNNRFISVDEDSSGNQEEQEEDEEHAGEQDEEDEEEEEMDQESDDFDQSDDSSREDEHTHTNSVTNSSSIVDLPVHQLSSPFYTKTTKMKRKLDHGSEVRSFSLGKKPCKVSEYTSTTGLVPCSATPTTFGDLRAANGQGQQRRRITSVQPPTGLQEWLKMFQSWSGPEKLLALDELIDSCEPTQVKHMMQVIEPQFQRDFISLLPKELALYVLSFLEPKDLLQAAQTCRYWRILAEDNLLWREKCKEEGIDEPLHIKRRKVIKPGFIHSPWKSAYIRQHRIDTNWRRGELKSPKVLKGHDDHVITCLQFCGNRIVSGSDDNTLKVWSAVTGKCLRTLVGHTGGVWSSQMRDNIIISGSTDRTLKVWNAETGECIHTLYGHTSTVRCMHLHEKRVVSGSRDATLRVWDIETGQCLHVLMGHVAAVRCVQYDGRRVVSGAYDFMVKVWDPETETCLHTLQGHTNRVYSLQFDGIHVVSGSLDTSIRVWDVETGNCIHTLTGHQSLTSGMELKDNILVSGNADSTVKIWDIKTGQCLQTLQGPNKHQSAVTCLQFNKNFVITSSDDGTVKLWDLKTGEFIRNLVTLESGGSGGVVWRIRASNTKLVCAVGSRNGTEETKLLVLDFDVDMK

What follows are compounds tested against F-box/WD repeat-containing protein 7 (Homo sapiens) (UniProt Q969H0) (assay: FBW7 E3 ligase activators, primary screen, biochemical, AlphaScreen, human (AID 1259310;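 further: purified mutant Fbw7 with reduced substrate affinity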)). Conditions: AlphaScreen FBW7–phospho-cyclin E peptide binding, activator screen; at 26.1 µM; hits give high values.

| SMILES | normalized activity (activation) |
| --- | --- |
| COP(=O)(OC)Oc1c(Cl)c(Cl)c(O)c(Cl)c1Cl | inactive: 0.11% |
| CCSP(=O)(c1ccccc1)c1ccccc1 | inactive: 0.03% |
| O=C(Cc1ccc(F)cc1)N(Cc1ccco1)C1CCN(CCc2ccccn2)CC1 | inactive: 0.1% |
| COCCN(CCOC)C(=O)COC(=O)C(O)(c1ccccc1)c1ccccc1 | inactive: 0.36% |
| CN(C)C1(CNC(=O)c2ccc(S(C)(=O)=O)cc2)CCCCC1 | inactive: -0.08% |
| O=C(O)C(Cl)CSc1nc2ccccc2o1 (centres undefined) | inactive: -0.26% |
| O=C(/C=C/c1ccccc1)OC1CN2CCC1CC2 (centres undefined) | inactive: 0.02% |
| COc1ccccc1NC1=NCC(CBr)S1 (centres undefined) | inactive: -0.65% |
| CC(C)NC(=O)N(Cc1cccnc1)C1CCN(CCc2ccccn2)CC1 | inactive: 0.68% |
| Cc1nn(-c2ccccc2)c2c1P(=O)(N1CCOCC1)N(C)C(c1ccccc1)=N2 (centres undefined) | inactive: 0.07% |
| N#Cc1cccc(C(=O)N(Cc2ccco2)C2CCN(CCc3ccccn3)CC2)c1 | inactive: -0.06% |
| Cc1n[n+]2c([nH]c1=O)SCC(Br)C2c1ccccc1 (centres undefined) | inactive: 0.01% |
| O=[N+]([O-])c1ccc2c(c1)/C(=N\O)c1cc([N+](=O)[O-])cc([N+](=O)[O-])c1-2 | inactive: 0.03% |
| O=C(Nc1ccc(Br)cc1[N+](=O)[O-])c1cc([N+](=O)[O-])cc([N+](=O)[O-])c1 | inactive: -0.15% |
| CCCCC(NC(=O)OC(C)(C)C)C(=O)O (centres undefined) | inactive: -0.13% |
| COC(=O)c1cc([N+](=O)[O-])c(Nc2ccc([N+](=O)[O-])cc2Br)c([N+](=O)[O-])c1 | inactive: -0.12% |
| Cc1ccc(S(=O)(=O)NCCCCC(NC(=O)OC(C)(C)C)C(=O)O)cc1 (centres undefined) | inactive: 0.53% |
| COC(=O)c1nsnc1NCCCl | inactive: 0.34% |
| CC1(CBr)Cn2c(nc3ccccc3c2=O)S1 (centres undefined) | inactive: 0.1% |
| CC(Cl)(CSSCC(C)(Cl)C(=O)O)C(=O)O (centres undefined) | inactive: -0.32% |
| COc1cc([N+](=O)[O-])cc([N+](=O)[O-])c1N/N=C(/C)c1cccc([N+](=O)[O-])c1 | inactive: 0.73% |
| O=C(c1ccco1)N(Cc1cccnc1)C1CCN(CCc2ccc(Cl)cc2)CC1 | inactive: -0.13% |
| CCc1cccc(NC(=O)Oc2c([N+](=O)[O-])cc([N+](=O)[O-])cc2[N+](=O)[O-])c1 | inactive: -0.06% |
| CC(C)(C)C(=O)NC(Sc1ncccn1)C(Cl)(Cl)Cl (centres undefined) | inactive: -0.04% |
| CCOc1ccc(NP2(=O)C=C(Cl)N(C)C(=O)N2C)cc1 (centres undefined) | inactive: 0% |

| SMILES | normalized activity (activation) |
| --- | --- |
| n1[nH]nc2c1c1n[nH]nc1c1n[nH]nc21 | inactive: -0.98% |
| COc1cccc(OP(=O)(Nc2ccccn2)Oc2cccc(OC)c2)c1 | inactive: -0.04% |
| CCOP(=O)(NC(=NC(C)c1ccccc1)NC(C)c1ccccc1)OCC (centres undefined) | inactive: 0.13% |
| CCOc1ccc(NC(=O)c2ccc([N+](=O)[O-])cc2[N+](=O)[O-])c([N+](=O)[O-])c1 | inactive: -0.12% |
| COc1ccc2nc(SCc3ccc(C(=O)O)cc3)[nH]c2c1 | inactive: 0.48% |
| O=[N+]([O-])c1cc([N+](=O)[O-])c(N2CCCCC2)c([N+](=O)[O-])c1 | inactive: -1.53% |
| O=P1(Nc2ccccn2)COc2ccccc2OC1 | inactive: -0.04% |
| CN(CCCl)Cc1cc(Cl)c(NC2=NCCN2)c(Cl)c1 | inactive: 0.03% |
| CCOP(=O)(CN)OCC | inactive: 0.8% |
| O=C(Cc1ccc(F)cc1)N(Cc1cccnc1)C1CCN(CCc2ccccn2)CC1 | inactive: 0.13% |
| Nc1c([N+](=O)[O-])cc([N+](=O)[O-])c(Nc2ccc(S(N)(=O)=O)cc2)c1[N+](=O)[O-] | inactive: -0.28% |
| CCN(CC)C(=O)NP(=O)(Oc1ccccc1)Oc1ccccc1 | inactive: -0.01% |
| Cc1cc(NP(=O)(Oc2ccccc2)Oc2ccccc2)no1 | inactive: -0.07% |
| COc1ccc(NC(=O)c2cc([N+](=O)[O-])cc([N+](=O)[O-])c2)c([N+](=O)[O-])c1 | inactive: -0.08% |
| O=C(Nc1ccncc1[N+](=O)[O-])c1ccc([N+](=O)[O-])cc1[N+](=O)[O-] | inactive: -0.11% |
| COc1ccc(CCN2CCC(N(Cc3cccnc3)C(=O)NC(C)C)CC2)cc1 | inactive: 0.3% |
| COc1cc(NC(=O)COC(=O)C(O)(c2ccccc2)c2ccccc2)cc(OC)c1 | inactive: 0.08% |
| Cc1cc(NP(=O)(/C=C(\Cl)c2ccccc2)/C=C(\Cl)c2ccccc2)n[nH]1 | inactive: -0.09% |
| O=C(COC(=O)c1ccc([N+](=O)[O-])cc1[N+](=O)[O-])c1ccc([N+](=O)[O-])cc1 | inactive: -0.21% |
| Cc1sc2nc3n(c(=O)c2c1C)CC(CI)S3 (centres undefined) | inactive: 0.02% |
| O=C(CF)NC(Sc1ccccc1)C(Cl)(Cl)Cl (centres undefined) | inactive: 0.26% |
| Cc1cc(SC(NC=O)C(Cl)(Cl)Cl)ncn1 (centres undefined) | inactive: 0.33% |
| CCN1C(=O)N(c2ccccc2)P(=S)(OC)c2cc3c(cc21)OCCO3 (centres undefined) | inactive: 0.01% |
| CC(C)COP(=O)(Nc1ccc(Br)cc1)OCC(C)C | inactive: -0.11% |
| CCCCOP(=S)(CC(=O)N(CC)CC)OCCCC | inactive: -0.12% |

| SMILES | normalized activity (activation) |
| --- | --- |
| CC(C)OP(=O)(OC(C)C)C(=O)c1ccccc1Cl | inactive: -0.11% |
| O=[N+]([O-])c1cccc(Nc2ccc([N+](=O)[O-])cc2[N+](=O)[O-])c1 | inactive: 0.35% |
| CC(C)(C)C(=O)CSc1nc2ccccc2[nH]1 | inactive: -0.03% |
| O=[N+]([O-])c1ccc(-c2nnc(SCCCl)o2)cc1 | inactive: 0.24% |
| CC(C)OP(=O)(Nc1nc2ccccc2[nH]1)OC(C)C | inactive: -0.16% |
| O=C(Cc1ccc(F)cc1)N(Cc1ccco1)C1CCN(CCc2cccs2)CC1 | inactive: -0.2% |
| COP1(=S)N=C2c3ccccc3CN2c2cc(N(C)C)ccc21 (centres undefined) | inactive: 0.22% |
| CCN(CCCl)c1ccc(C=C(C#N)C#N)c(C)c1 | inactive: -0.17% |
| CC(C)NC(=O)NP(=O)(Oc1ccccc1)Oc1ccccc1 | inactive: -0.04% |
| CN(C)CCCN(C)Cc1cc2ccccc2o1 | inactive: -0.1% |
| COC(=O)N(c1ccc(OC)cc1)P1(=S)OCC(C)O1 (centres undefined) | inactive: -0.23% |
| O=[N+]([O-])c1cc([N+](=O)[O-])c(Nc2ccccc2)c([N+](=O)[O-])n1 | inactive: 0.1% |
| O=[N+]([O-])c1ccc2no[n+]([O-])c2c1 | inactive: 0.01% |
| O=C(NNC(=O)c1ccncc1)NP1Oc2ccccc2O1 | inactive: -0.3% |
| Nc1nonc1OCCOc1nonc1N | inactive: 0.27% |
| CCCOc1ccc(S(=O)(=O)N(CCCl)CCCl)cc1 | inactive: 0.55% |
| CCOP(=S)(OCC)SCC(=O)NC(C)C(=O)O (centres undefined) | inactive: -0.28% |
| O=P1(Nc2nc(-c3ccccc3)cs2)C=C(c2ccccc2)OC(c2ccccc2)=C1 | inactive: -0.02% |
| O=C(c1cccnc1)N(Cc1ccco1)C1CCN(CCc2ccc(Cl)cc2)CC1 | inactive: 0.03% |
| O=C(Cn1cnc([N+](=O)[O-])n1)NCCO[N+](=O)[O-] | inactive: 0.03% |
| CC(C)OP(=O)(OC(C)C)C(=O)c1ccc(F)cc1 | inactive: 0.22% |
| O=[N+]([O-])c1cc([N+](=O)[O-])c2[nH]ncc2c1 | inactive: 0.08% |
| CCOP(=O)(OCC)C(=O)c1ccc(OC)cc1 | inactive: -0.06% |
| CC(C)OP(=O)(NC(C)(C)C)C(Cl)Cl (centres undefined) | inactive: -0.18% |
| O=[N+]([O-])c1ccc(/C=C/C=N/Nc2ccc([N+](=O)[O-])cc2[N+](=O)[O-])cc1 | inactive: 0.05% |

| SMILES | normalized activity (activation) |
| --- | --- |
| CCOP(=O)(OCC)SCC(=O)NCC(=O)O | inactive: 0.08% |
| CCOP(=S)(OCC)C1(C#N)CCCC1 | inactive: 0.21% |
| O=C(Oc1ccc([N+](=O)[O-])cc1[N+](=O)[O-])c1ccc(Cl)cc1[N+](=O)[O-] | inactive: -0.08% |
| OP1(c2ccccc2)=NC(c2ccccc2)=NC(C(Cl)(Cl)Cl)=N1 (centres undefined) | inactive: 0.04% |
| O=C(c1cccnc1)N(Cc1ccco1)C1CCN(CCc2cccs2)CC1 | inactive: 0.11% |
| O=[N+]([O-])c1ccc(N/N=C/c2cc3c(cc2[N+](=O)[O-])OCO3)c([N+](=O)[O-])c1 | inactive: -0.18% |
| CC(=O)N(Cc1cccnc1)C1CCN(CCc2ccccn2)CC1 | inactive: -0.07% |
| ICC1CN=C(Nc2ncccn2)S1 (centres undefined) | inactive: -0.32% |
| CCCOP(=O)(OCCC)O/C(C)=C/SC#N | inactive: 0.75% |
| c1ccc2nc(-c3nc4ccccc4[nH]3)ccc2c1 | inactive: 0.31% |
| CC(C)OP(=O)(OC(C)C)C(=O)c1ccccc1 | inactive: 0.16% |
| BrCC1CN=C(Nc2ccccc2Br)S1 (centres undefined) | inactive: 0.38% |
| O=C(COC(=O)C(O)(c1ccccc1)c1ccccc1)NCC(F)(F)F | inactive: 0.01% |
| O=[N+]([O-])c1ccc(C(O)C(CO)Nc2ccc([N+](=O)[O-])cc2[N+](=O)[O-])cc1 (centres undefined) | inactive: 0.01% |
| Cc1cccc(NP(=O)(c2ccccc2)c2ccccc2)n1 | inactive: -0.05% |
| COP(=O)(OC)C(NC(=O)c1ccc(C)cc1)=C(Cl)Cl | inactive: 0.2% |
| COc1ccc(CCN2CCC(N(Cc3cccnc3)C(C)=O)CC2)cc1 | inactive: -0.05% |
| CN(C)P1(=O)Nc2ccccc2S1 (centres undefined) | inactive: -0.06% |
| Cc1cc(=O)[nH]c(N[N+](=O)[O-])n1 | inactive: -0.22% |
| CCOP(=S)(OCC)SCC(=O)NC(C)C(=O)NC (centres undefined) | inactive: -0.21% |
| COc1ccc(C)cc1NC(=O)N(Cc1ccco1)C1CCN(CCc2ccccn2)CC1 | inactive: -0.01% |
| O=C(Nc1nnc(-c2cccc([N+](=O)[O-])c2)s1)c1ccc([N+](=O)[O-])cc1[N+](=O)[O-] | inactive: -0.08% |
| CC1CN(c2ccc([N+](=O)[O-])cc2[N+](=O)[O-])CCN1c1ccc([N+](=O)[O-])cc1[N+](=O)[O-] (centres undefined) | inactive: -0.08% |
| CC(C)COP(=O)(Nc1cccc(F)c1)OCC(C)C | inactive: 0.02% |
